Amino acid sequences for entries named in this document (tags omitted). A change or cut given only in a name is not applied to a line headed by its entry.
UniProt P01116, whole entry: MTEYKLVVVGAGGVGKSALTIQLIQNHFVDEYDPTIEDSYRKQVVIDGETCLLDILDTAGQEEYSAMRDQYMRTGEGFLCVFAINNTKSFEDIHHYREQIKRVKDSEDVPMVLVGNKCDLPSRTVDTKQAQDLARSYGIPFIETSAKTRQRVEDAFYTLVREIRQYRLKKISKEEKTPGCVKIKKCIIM
UniProt P01116, whole entry G12D: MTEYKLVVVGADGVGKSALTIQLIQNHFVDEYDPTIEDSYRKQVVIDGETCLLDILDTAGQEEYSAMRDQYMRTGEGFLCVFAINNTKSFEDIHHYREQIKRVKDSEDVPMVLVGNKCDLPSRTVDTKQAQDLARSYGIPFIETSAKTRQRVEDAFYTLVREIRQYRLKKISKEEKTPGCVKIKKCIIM

In patent publication EP4361157A1, “FUSED TETRACYCLIC COMPOUND, PREPARATION METHOD THEREFOR AND APPLICATION THEREOF IN MEDICINE” (Jiangsu Hengrui Pharmaceuticals Co., Ltd., priority 2021, dated 2022):

What was measured:
[1] = system: AGS cells; assay: Inhibition of ERK phosphorylation of AGS cells (HTRF method); settings: read-out: AGS/IC50, phosphorylated ERK/total ERK ratio, 1 h incubation
Experimental: AGS cells (Nanjing Cobioer, CBP60476) were cultured in RPMI1640 (Hyclone, SH30809.01) complete medium containing 10% fetal bovine serum. On the first day of the experiment, the AGS cells were seeded into a 96-well plate with complete medium at a density of 40,000 cells/well to form 190 µL of cell suspension per well. The plate was incubated overnight in a cell incubator at 37 °C with 5% CO2.
The next day, 10 µL of serially-diluted test compound prepared from the complete medium was added to each well. The final concentrations of the compound were 9 concentration points obtained by 5-fold serial dilution from 10 µM. A blank control containing 0.5% DMSO was set. The well plate was incubated in a cell incubator at 37 °C with 5% CO2 for 1 h. After completion of incubation, the 96-well cell culture plate was taken out, the medium was removed by pipetting, 200 µL PBS (Shanghai BasalMedia Technologies Co., Ltd., B320) was added to each well, and the cells were washed once. […] On the third day, the fluorescence values at an excitation wavelength of 337 nm and at emission wavelengths of 665 nm and 620 nm were read using an ENVISION multifunctional microplate reader (PerkinElmer, ENVISION). […]

[2] = system: GP2d cells; assay: Inhibition of 3D proliferation of GP2d cells (CellTiter-Glo 3D); settings: read-out: GP2d /IC50, 120 h incubation
Experimental: GP2d cells (Nanjing Cobioer, CBP60010) were cultured in a complete medium, namely DMEM/high glucose medium (Hyclone, SH30243.01) containing 10% fetal bovine serum (Corning, 35-076-CV). On the first day of the experiment, GP2d cells were seeded into a 96-well low adsorption plate (Corning, CLS7007-24EA) with complete medium at a density of 1,000 cells/well to form 90 µL of cell suspension per well. The plate was centrifuged at 2,000 rpm for 5 min at room temperature and then incubated overnight in a cell incubator at 37 °C with 5% CO2.
(§1) The next day, 10 µL of serially-diluted test compound prepared from the complete medium was added to each well. The final concentrations of the compound of GP2d cells were 9 concentration points obtained by 3-fold serial dilution from 1 µM, and the final concentrations of the compound of AGS cells were 9 concentration points obtained by 3-fold serial dilution from 10 µM. A blank control containing 0.5% DMSO was set. […] On the seventh day, the 96-well cell culture plate was taken out, 50 µL CellTiter-Glo® 3D reagent (Promega, G9682) was added into each well, the plate was shaken at room temperature for 25 min, pipetted and mixed well, 50 µL of the solution was transferred into a white impermeable 96-well plate (PE, 6005290), and the luminescence signal values were read using a multifunctional microplate reader (PerkinElmer, ENVISION). […]

[3] = molecular target: Avi-KRAS-WT (Homo sapiens, UniProt P01116); assay: SPR affinity for KRAS protein subtype WT (Biacore 8K); settings: read-out: WT KD (unit mol/L), single-cycle kinetic mode, 1:1 model, biotinylated Avi-KRAS-WT
Experimental: (§2) Biotinylated Avi-KRAS-WT or Avi-KRAS-G12D was diluted to 20 µg/mL with 1 × HBS-P+ (Cat. # BR1006-71) buffer containing 100 mM MgCl2, and then flowed through SA (Cat. # BR1005-31) biosensing chip channel 2 for 420 s to obtain a coupling level of approximately 5000-7000 RU. Then samples of small molecular compounds were injected for 120 s in an ascending order, and then were dissociated for 720 s. The experiment employed a single-cycle kinetic mode. Reaction signals were detected in real time using a Biacore 8K instrument to obtain association and dissociation curves. After the experiment ended, data analysis was performed using Biacore 8K evaluation software, and affinity data were obtained by performing data fitting using a 1:1 model. Table 3. Affinity data of compounds for KRAS protein subtype G12D or WT

[4] = system: AGS cells; assay: Inhibition of 3D proliferation of AGS cells (CellTiter-Glo 3D); settings: read-out: AGS /IC50, 120 h incubation
Experimental: AGS cells (Nanjing Cobioer, CBP60476) were cultured in a complete medium, namely RPMI1640 medium (Hyclone, SH30809.01) containing 10% fetal bovine serum (Corning, 35-076-CV). On the first day of the experiment, the AGS cells were seeded into a 96-well low adsorption plate (Corning, CLS7007-24EA) at a density of 1,000 cells/well using complete medium to form 90 µL of cell suspension per well. The plate was centrifuged at 2,000rpm for 5 min at room temperature and then incubated overnight in a cell incubator at 37 °C with 5% CO2.
as §1

[5] = molecular target: Avi-KRAS-G12D (Homo sapiens, UniProt P01116, G12D); assay: SPR affinity for KRAS protein subtype G12D (Biacore 8K); settings: read-out: G12D KD (unit mol/L), single-cycle kinetic mode, 1:1 model, biotinylated Avi-KRAS-G12D
Experimental: as §2

IC50 [1]: 1.1 nM | Kd [3]: 7.6 nM | IC50 [4]: 25.8 nM | Kd [5]: 0.3 nM
Structure (SMILES): CCc1cccc2cc(O)cc(-c3nc4c5c(nc(OC[C@@]67CCCN6C[C@H](F)C7)nc5c3F)N3CC5CCC(N5)C3CO4)c12 (some centres unmarked)
IC50 [2]: 4.4 nM
